According to article PMC12363342, “Investigating the N-terminal linker histone H1 subtypes as substrates for JmjC lysine demethylases” (RSC Chemical Biology, 2025):

Biological target: T1, KDM4E (Homo sapiens, UniProt B2RXH2)
T1 construct: KDM4DM1-L359,[39]; KDM4EM1-R336,[30]; His6 (N); made in house; host or cells: Escherichia coli
T1 sequence (B2RXH2 1-336): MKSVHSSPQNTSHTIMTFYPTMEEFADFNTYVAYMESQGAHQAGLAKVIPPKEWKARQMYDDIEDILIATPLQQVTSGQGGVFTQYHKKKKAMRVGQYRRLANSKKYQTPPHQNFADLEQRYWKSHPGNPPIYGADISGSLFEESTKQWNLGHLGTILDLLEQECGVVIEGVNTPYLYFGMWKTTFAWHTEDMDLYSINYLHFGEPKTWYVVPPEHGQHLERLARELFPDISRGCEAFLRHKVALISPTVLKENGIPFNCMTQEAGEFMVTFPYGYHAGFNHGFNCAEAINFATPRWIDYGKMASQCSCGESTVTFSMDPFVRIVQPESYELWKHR
Experiment: formaldehyde dehydrogenase (FDH)-coupled demethylation assay, KDM4E
Assay type: biochemical
Settings: FDH-coupled fluorescence assay, KDM4E (400 nM), peptide 1–50 μM, HEPES pH 7.5
Description: Kinetic parameters were determined by recording the initial reaction rates of NADH production at varying histone peptide concentrations (Fig. S24 and S25). The overall catalytic efficiencies (as measured by kcat/KM) gave the following rank orders for KDM4D: H1.5K26me3 (0.192 μM^−1 min^−1) > H1.3K24me3 (0.066 μM^−1 min^−1) ≈ H1.2K26me3 (0.063 μM^−1 min^−1) > H1.4K25me3 (0.044 μM^−1 min^−1). For KDM4E, the kinetic rank order was as follows: H3K9me3 (0.585 μM^−1 min^−1) > H1.2K26me3 (0.360 μM^−1 min^−1) > H1.5K26me3 (0.324 μM^−1 min^−1) ≈ H1.3K24me3 (0.310 μM^−1 min^−1) > H1.2K25me3 (0.247 μM^−1 min^−1) ≈ H1.4K25me3 (0.226 μM^−1 min^−1). These rank orders differ somewhat from the initial screening results. However, given the complexities of 2OG oxygenase catalysis and the relatively low catalytic efficiencies observed, such apparent discrepancies are not unexpected.[28] […]
Kinetic parameters for demethylation of N^ε-trimethylated H1 peptides by KDM4D and KDM4E (400 nM) measured using a formaldehyde dehydrogenase-coupled demethylation assay. […]
Substrate Km values for KDM4 enzymes were determined using a reported formaldehyde dehydrogenase/NAD coupled enzyme assay that quantifies formaldehyde production.[30] […] Coupled enzyme-assays were carried out in black polystyrene 384-well non-binding surface microplates (Corning) and kinetic measurements were obtained using a PHERAstar FS plate reader (BMG Labtech) equipped with a 350 nm excitation and 460 nm emission optic module.[30] […] Assays were initiated by plate reader injection of 25 μL of a mixture of KDM4 (0.8 μM) and formaldehyde dehydrogenase (FDH) (2.0 μM) in assay buffer (50 mM HEPES pH 7.5, 0.01% (v/v) Tween-20). Production of NADH was measured at 60 second intervals over 25 cycles. Kinetic parameters were determined from the reaction rate during the initial linear phase of formaldehyde production, and specific activities were calculated from a formaldehyde standard curve and fitted to the Michaelis–Menten equation using GraphPad Prism Version 5.0 (GraphPad software, La Jolla, CA, USA). […]

[1] = FAS 20 μM, LAA 200 μM, 2OG 200 μM, NAD+ 500 μM, FDH 2.0 μM, mean ± SEM (n = 3)

ARTKQTARKme3STGGKA [Peptide H3K9me3, histone H3 residues 1-15 peptide with tri-methylated K9; commercial positive control, reference compound]
Km [1]: 6.72 ± 1.51 µM
kcat (KDM4E) [1]: 0.0655 ± 0.00317 s⁻¹
kcat/KM (KDM4E) (catalytic efficiency): 9750 M⁻¹ s⁻¹
